Experiments:
L 1210 leukemia = assay: Test 11: L 1210 leukemic mice, examples 7 and 8 (Table VIII); type: in vivo; parameters: unit not given beside the values; settings: 0.05 mg/mouse, J+1
Procedure: This test was carried out with 10^3, 10^4 and 10^5 leukemic cells on day J. This test was also carried out with the compound of example 7, i.e. 1-[(γ-diethylaminopropyl)amino]-5-methyl-dipyrido [4,3-b][3,4-f] indole (compound 21).

L1210 leukemia = assay: Test 16: structure-activity of R'1 substitution, L1210 (Table XII); type: in vivo, mouse (C57B16xDBA/2)F1; parameters: unit not given here; settings: day +1
Procedure: Test 16: Relationship between structure and activity of various dipyrido indoles differing by the R'1 substitution.
The R'1 substitution at the 1 position seems to be very important for the protective effect of the derivatives against L1210 tumor cell growth.
L1210 leukemia has been maintained by weekly passages on (C57B16xDBA/2)F1 mice. On day 0, mice were inoculated by I.P. route with various numbers of L1210 ascitic tumor cells in volumes of 0.1 ml. Subsequently as indicated, drugs were administrated in Ca^++ and Mg^++ free PBS solutions (Gibco) or in Mac Coy's medium (Gibso or Microbiological Associates).
[…] The decrease in the average of host life-span between each consecutive ten-fold increase in size of the leukemic cell inoculum was 2 days. According to the method of calculation of Dombernowsky, the doubling time was 0.615 days.

Work on `Cc1c2ccnc(NCCCN(C)C)c2cc2c1[nH]c1ccncc12` [Example 8, 1-(γ-dimethylaminopropyl)amino-5-methyl-dipyrido-[4,3-b][3,4-f] indole] yielded an MTS (L 1210 leukemia; 10^3 cells) of 14.7, an MTS (L 1210 leukemia; 10^4 cells) of 14.7 and an MST (L1210 leukemia; 10^4 cells, 2.5 mg/kg) of 14.7. For the same compound, the MST (L1210 leukemia; 10^5 cells, 5 mg/kg) was 13.8.

Source: patent publication US4444776A, “Dipyrido (4,3-B) (3,4-F) indoles, process for obtaining them, therapeutical use and pharmaceutical compositions” (priority 1977, dated 1984)
